The text below walks through data of PubChem BioAssay AID1662 (Broad Institute, 2009).

The entries are a selection whose mix differs from that of the whole data set. Calls of active or inactive are those of the source.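 The calls were made as follows: active = mean replicate score, as percent of positive control median, at least 50; inconclusive = mean below 50 but one replicate at or above 50; inactive = mean and every replicate below 50.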

The nature of the test: S. pyogenes SKKanGAS growth inhibitors in kanamycin, primary screen, streptokinase expression inhibitor project, SKKanGAS strain, BacTiter-Glo luminescence (AID 1662).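 Also: strain carries kanamycin resistance gene driven by streptokinase promoter and grows in 40 µg/ml kanamycin; loss of luminescence reflects streptokinase promoter inhibition or plain growth inhibition; 0% = median of DMSO wells and 100% = positive control at its reference dose.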 The following applies: 6 h, at 7.5 µM, stronger effect = higher value.
What is called inhibition is the relative decrease from the control value, in per cent. Turning to `CCOC(=O)C(CC)C1=NC(C)(C)Cc2ccccc21.O=[N+]([O-])c1cc([N+](=O)[O-])c(O)c([N+](=O)[O-])c1` (stereo not drawn), the inhibition was inactive: 8.3%.
Then `O=[N+]([O-])c1cc([N+](=O)[O-])c(Nc2nnnn2CCO)c([N+](=O)[O-])c1`, with inactive: -0.484%.
Then `O=[N+]([O-])c1cc([N+](=O)[O-])c(-c2cnn(-c3ccccc3)c2)c([N+](=O)[O-])c1`, with inactive: 11.8%.
Take `O=[N+]([O-])c1cc([N+](=O)[O-])c(-n2nnc3ccccc32)c([N+](=O)[O-])c1`: the inhibition was inactive: -11.9%.
Take `CP(=O)(Nc1ccccn1)Oc1ccc(Cl)cc1` (stereo not drawn): the inhibition is inactive: -1.74%.
Then `O=[N+]([O-])c1cc([N+](=O)[O-])c(O)c([N+](=O)[O-])c1.c1ccc(Oc2ccncc2)cc1`, with inactive: 2.84%; and `CCOC(=O)c1ccc(NP(C)(=O)Oc2ccc(OC)cc2)cc1` (stereo not drawn), with inactive: 1.78%; and `CCOP(C)(=S)SCC(=O)NC(C)C(=O)O` (stereo not drawn), with inactive: -2.74%.
Regarding `Cc1cc(C)cc(OP(C)(=O)Nc2ccc(SC(F)(F)F)cc2)c1` (stereo not drawn), the inhibition is inactive: 2.68%.
Then `CCc1ccc(OP(C)(=O)N2CCN(c3ccc([N+](=O)[O-])cc3)CC2)cc1` (stereo not drawn), with inactive: -12.7%; and `CP(=O)(NC(=O)Nc1ccccc1)Oc1ccccc1` (stereo not drawn), with inactive: -3.76%; and `CP(=O)(Oc1ccccc1)OC(c1ccccc1)C(F)(F)F` (stereo not drawn), with inactive: -0.541%.
With `CP(=O)(Nc1ccc(SC(F)(F)F)cc1)Oc1ccc(Cl)cc1` (stereo not drawn) the figure was inactive: 9.03%.
Turning to `Cc1cccc(C)c1OP(C)(=O)Nc1ccc(SC(F)(F)F)cc1` (stereo not drawn), the inhibition was inactive: -1.63%.
With `CP(=O)(Nc1ccccc1Br)Oc1ccccc1` (stereo not drawn) the figure was inactive: 4.75%.
For `COc1ccccc1OP(C)(=O)Nc1ccccc1` (stereo not drawn), the inhibition was inactive: -12.1%.
For the compound `CP(=S)(Nn1cnnc1)Oc1ccccc1` (stereo not drawn), the inhibition is inactive: -9.08%.
As for `Cc1cc(C)cc(OP(C)(N)=O)c1` (stereo not drawn), the inhibition was inactive: -4.03%.
Turning to `COc1ccc(OP(C)(=O)Nc2cccc(F)c2)cc1` (stereo not drawn), the inhibition was inactive: -2.32%.
With `COc1ccccc1OP(C)(=O)Nc1cc(Cl)ccc1C` (stereo not drawn), the inhibition is inactive: 0.751%.
Then `Cc1ccc(NP(C)(=O)Oc2ccccc2)c(C)c1` (stereo not drawn), with inactive: -3.19%; and `COc1ccccc1OP(C)(=O)Nc1ccc(C)cc1` (stereo not drawn), with inactive: 2.43%; and `CCOC(=O)c1ccc(NP(C)(=O)Oc2ccccc2)cc1` (stereo not drawn), with inactive: -0.0985%.
Turning to `O=[N+]([O-])c1ccc2c(c1)C=Nc1ccccc1O2`, the inhibition was inactive: -4.64%.
With `Cc1cccc(C)c1OP(C)(N)=O` (stereo not drawn) the figure was inactive: -1.34%; with `CC(C)(C)c1ccc(OP(C)(=O)Nc2ccc(SC(F)(F)F)cc2)cc1` (stereo not drawn), inactive: 13.4%; with `O=[N+]([O-])c1cc([N+](=O)[O-])c(Nc2cccnc2)c([N+](=O)[O-])c1`, inactive: 15.9%.
With `CCN(CC)CCCOC(=O)C(O)(c1ccccc1)c1ccccc1` the figure was inactive: -4.31%.
